Biological target: Aβ1-40 (Homo sapiens, UniProt P05067)
Details: Table II; 100 mole % relative to 50 μM Aβ1-40
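Also: Aβ nucleation assay tracking fiber polymerization from monomer by turbidity (light scattering), shaken continuously in 96-well plates, read every 15 min over 5 h, compared with compound-free control.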

Chains of the proteins cited; added tags and fusions are not shown. Residues count along the entry.
UniProt P05067, 672-711: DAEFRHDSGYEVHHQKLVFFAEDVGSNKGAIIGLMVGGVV

For `CC(C)[C@H](NC(=O)[C@H](CCC(=O)O)NC(=O)[C@H](Cc1ccc(O)cc1)NC(=O)CNC(=O)[C@H](CO)NC(=O)[C@H](CC(=O)O)NC(=O)[C@H](Cc1c[nH]cn1)NC(=O)[C@H](CCCNC(=N)N)NC(=O)[C@H](Cc1ccccc1)NC(=O)[C@H](CCC(=O)O)NC(=O)[C@H](C)NC(=O)[C@H](CC(=O)O)NC(=O)CCCC[C@@H]1SC[C@@H]2NC(=N)N[C@@H]21)C(=O)N[C@@H](Cc1c[nH]cn1)C(=O)N[C@@H](Cc1c[nH]cn1)C(=O)N[C@@H](CCC(N)=O)C(=O)O` [PPI-172], which “Fold Increase in Lag Time” value is on record?
The value was 1.2 fold.

Source: patent publication US5854204A, “Aβ peptides that modulate β-amyloid aggregation” (priority 1996, dated 1998)
